# Measured affinities in a library of Ab-14 heavy chain variants

Target: peptide PDVDLGDISGINAS, taken from heptad repeat 2 (HR2) of SARS-CoV-2 spike.

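The starting antibody came from a phage panning campaign against this peptide. Library AAYL49 holds single substitutions and randomly drawn double and triple substitutions in the CDRs. The assay is AlphaSeq: two haploid yeast populations carry antibody and antigen on their surface. Pairs that bind mate more often; barcode pairs of the diploids are counted by sequencing. The ratio of observed to expected reads was calibrated, replicate by replicate, on BCL2-family standards whose Kd was known from biolayer interferometry. There are three technical replicates.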

Parent: Ab-14, a human scFv built as VH, three GGGGS repeats, VL. Only the CDRs of the heavy chain vary.
VH: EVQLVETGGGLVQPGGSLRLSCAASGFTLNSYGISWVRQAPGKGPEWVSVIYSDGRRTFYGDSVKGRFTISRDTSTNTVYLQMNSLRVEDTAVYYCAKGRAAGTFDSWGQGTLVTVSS
VL: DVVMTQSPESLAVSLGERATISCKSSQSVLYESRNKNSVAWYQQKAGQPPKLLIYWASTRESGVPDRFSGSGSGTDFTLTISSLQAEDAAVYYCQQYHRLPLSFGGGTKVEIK

The parent's heavy chain CDRs are GFTLNSYGIS, VIYSDGRRTFYGDSVK, GRAAGTFDS; each variant's own CDRs replace them letter for letter.
Every variant below is changed at I51 of the VH (sequential numbering).
Values are log10 of the apparent Kd in nM; lower means stronger binding.
Replicates are averaged; those with no signal do not enter the mean.
A pair that was not seen in any replicate is written "nd"; this usually means weak binding, but a binder can also be missed.
Empty control strains, which show no peptide, gave a signal in 15% of pairings with library AAYL49; the median was 4.06 and 95% of these signals were weaker than 2.83. No background was subtracted.

The variant GFTLNSYGSS | VSYSDGRRTFYGDSVK | YRAAGTFDS showed 4.52 (2 of 3 replicates). The variant GFTLNSYGIS | VLYCDGRRTFYGDSVK | GRAAGTFDD showed nd (0 of 3 replicates). For GFTLVSYGIS | VSYSDGRRTFYGDSVK | GRAPGTFDS, the assay gave 3.02 (2 of 3 replicates). With GFTLNSRGIS | VMYSDGRRTFYGDSVK | GRAAGTFDS the result was nd (0 of 3 replicates). For GFTLNSYGIS | VQYSDGRRTFYGDSLK | GRAAGTFDS, the assay gave nd (0 of 3 replicates). The variant GFTFNSYGIS | VMYSDGRRTFYYDSVK | GRAAGTFDS showed nd (0 of 3 replicates). With GFTLNSYMIS | VTYSDGRRTSYGDSVK | GRAAGTFDS the result was 4.50 (2 of 3 replicates). For GFTLNSYGIS | YWISDGRRTFYGDSVK | GRAAGTFDS, the assay gave 4.20 (2 of 3 replicates). For GFTLMSYGIS | VSYSDGRRTFYGCSVK | GRAAGTFDS, the assay gave nd (0 of 3 replicates).

The variant GFTLNSYGIS | VQYSDGRRTFYGDSVK | GRAAGNFDW showed nd (0 of 3 replicates). With GFTLNSYGIS | VDYSLGRRTFYGDSVK | GRAAGAFDS the result was 4.29 (1 of 3 replicates). The variant GFTLNSYGIS | VMYSDGRRTAYGDSEK | GRAAGTFDS gave nd (0 of 3 replicates). For GFTLNSYGIS | VDYSDGRRTFYGDLVI | GRAAGTFDS, the assay gave nd (0 of 3 replicates). For GDTLNSYGIS | VCYSDKRRTFYGDSVK | GRAAGTFDS, the assay gave 5.27 (1 of 3 replicates). For GPTLNSYGIS | VFYSDGRATFYGDSVK | GRAAGTFDS, the assay gave 3.69 (1 of 3 replicates). With GFTLNSLGIS | VMYSDGRRTFIGDSVK | GRAAGTFDS the result was 3.85 (1 of 3 replicates). The variant GFTNNSYGIS | VPYSDGRRTFYGDSVK | GRAAGTEDS gave nd (0 of 3 replicates). The variant GFTLNSYGTS | VLYSDGRRTFYLDSVK | GRAAGTFDS showed 2.73 (2 of 3 replicates).

The variant GVTLNSYGIS | VAYSDGRVTFYGDSVK | GRAAGTFDS gave 5.01 (3 of 3 replicates). The variant GFTLNSYGIS | VWYSDGRRQFYPDSVK | GRAAGTFDS showed 3.20 (1 of 3 replicates). The variant GFTLNSYGIS | VCYSDGRRTFCGDSVK | GRAAGTFYS showed nd (0 of 3 replicates). For GFTLNSYGIS | VWYQDGRRTFTGDSVK | GRAAGTFDS, the assay gave nd (0 of 3 replicates). The variant GFTLNSYGIS | VSYSDGRRPFYGDSVK | LRAAGTFDS showed nd (0 of 3 replicates). The variant GFTLNSYGIS | VGYSDGTRTFYGDKVK | GRAAGTFDS gave nd (0 of 3 replicates). With TFTLNSYGIS | VTYSDGRRTFYGQSVK | GRAAGTFDS the result was 3.66 (1 of 3 replicates). With GFTLNSYGIS | VGYSDGRRTFYGDSVK | GRAAGIFTS the result was 4.33 (1 of 3 replicates). For GFTLNSYGIS | VFYSDGRRNFYGDSVK | GRAAGTFDS, the assay gave 3.48 (1 of 3 replicates).

For GLTLNSYGIS | VPYSDGWRTFYGDSVK | GRAAGTFDS, the assay gave nd (0 of 3 replicates). The variant RFTLNSYGIS | VTYSDRRRTFYGDSVK | GRAAGTFDS showed nd (0 of 3 replicates). The variant GFTANSYGIS | VHYSDGRRTFFGDSVK | GRAAGTFDS showed nd (0 of 3 replicates). The variant GFELNSYGIS | VDYSDGRRTFYGDSVK | GRAAGTFDS showed 4.04 (2 of 3 replicates). The variant GFTYNSYGIS | VKYSDGRRTFYGDSVH | GRAAGTFDS showed 3.54 (1 of 3 replicates). The variant GFTLNSYGIS | VDYSDLNRTFYGDSVK | GRAAGTFDS showed 3.28 (1 of 3 replicates). With GFTLNSYGIS | MEYSDGRRTFYSDSVK | GRAAGTFDS the result was 4.99 (3 of 3 replicates). For GFTLNSYGPW | VGYSDGRRTFYGDSVK | GRAAGTFDS, the assay gave nd (0 of 3 replicates). For GFTLNSYGIS | VFYSDGRRTFYPDSVK | GWAAGTFDS, the assay gave 4.77 (1 of 3 replicates).

For GFTLNSYGIS | VDYSDGQRTFYGDSVK | GRAAGTFWS, the assay gave 4.13 (2 of 3 replicates). For GFTLNSYGIS | VEYTDGRRTFYGDSVK | GRAAGTFQS, the assay gave nd (0 of 3 replicates). For GFTLNSYGIS | VWYSDGRRTFYGDSVK | GRVAGTFDS, the assay gave nd (0 of 3 replicates). The variant GFTLNSYGIS | VKYSDGCRTFFGDSVK | GRAAGTFDS showed 5.27 (1 of 3 replicates). For GFTLNSYLIS | VCYSDGRRTFYGDSCK | GRAAGTFDS, the assay gave nd (0 of 3 replicates). The variant GFTLNSYGIS | VNYSDGRRRFYGDSVK | GRAANTFDS gave nd (0 of 3 replicates). The variant GFTPNSYGIS | VMYSDGRRTFYGDSKK | GRAAGTFDS showed nd (0 of 3 replicates). The variant GFTLNSYGIS | VWYSDGRGTFYGDSVK | GRAAGTFDS showed nd (0 of 3 replicates). The variant GFTLNSYGIS | VTYSDGRRTFYGDSVK | GSAAGTHDS gave 2.61 (3 of 3 replicates).

The variant GFTLNSYGIN | VRYSDGRRTFYGDSVK | GRAAGGFDS gave nd (0 of 3 replicates). For GFTLNSYGGS | VDYSDGIRTFYGDSVK | GRAAGTFDS, the assay gave nd (0 of 3 replicates). With GFTLNSYGWS | VKYSDGRRTFYGDSVK | DRAAGTFDS the result was 5.70 (2 of 3 replicates). With GTTLNSYGIS | VMYSDGRRTFYGDYVK | GRAAGTFDS the result was 4.63 (2 of 3 replicates). The variant GFTLNSYGIS | VLYSDGRRTFYGFSVK | GRAAYTFDS gave nd (0 of 3 replicates). The variant GFTLNSYGIS | AEYSDGRRTFYKDSVK | GRAAGTFDS gave nd (0 of 3 replicates).

The closing 4 entries, repeated:

For GFTLNSYGWS | VKYSDGRRTFYGDSVK | DRAAGTFDS, the assay gave 5.70 (2 of 3 replicates).
For GTTLNSYGIS | VMYSDGRRTFYGDYVK | GRAAGTFDS, the assay gave 4.63 (2 of 3 replicates).
For GFTLNSYGIS | VLYSDGRRTFYGFSVK | GRAAYTFDS, the assay gave nd (0 of 3 replicates).
For GFTLNSYGIS | AEYSDGRRTFYKDSVK | GRAAGTFDS, the assay gave nd (0 of 3 replicates).

Source: Engelhart et al. 2022 (doi:10.1038/s41597-022-01779-4), MIT Lincoln Laboratory and A-Alpha Bio; data file from the FLAb repository.